G9a inh = blocks human histone lysine methyltransferase G9a; G9a H3K9 monomethylation, AlphaScreen, 2 h; Q96KQ7; AID 504332; Potency, µM (series often up to 102 µM), for the others: at the top dose activity, negative = inhibition, usual class: inhibitors; 350,000 tested, 8.8% active; further: potency means the concentration at half of the fitted maximal effect; on the % scale 0 is the no-effect control and ±100 the full control effect; nearly all actives have a fitted effect of over 75% in size
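Quantitative HTS format: methyltransferase activity on a biotin-tagged H3K9 peptide is measured by AlphaScreen, using a rabbit anti-monomethyl-H3K9 antibody with streptavidin donor and anti-IgG acceptor beads. Final levels are 20 nM enzyme, 500 nM peptide, 20 uM SAM; 2 h RT.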
Lamin A splicing = changes lamin A minigene splicing in HeLa cells; HeLa LMNA splicing GFP/RFP minigene ratio, 48 h; Potency, µM (highest dose often 46.1 µM), for inactives: top-dose ratio change, negative = inhibition, usual class: inhibitors; 200,000 tested, 0.01% active; active means well fitted inhibition curve with a large enough effect in the signal ratio, with a control signal flat, not every such curve was filed as active; inconclusive means small, poorly fitted or top-dose-only effect, or effect the other way, or a change in a side signal; the % refers to the signal ratio; further: potency means the concentration at half of the fitted maximal effect; on the % scale 0 is the no-effect control and ±100 the full control effect
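S3 HeLa stable clones carrying a lamin A-EGFP splicing minigene plus DsRed2 were seeded at 600 cells/well in Opti-MEM with 2% FBS, pin-dosed and incubated 48 h at 37°C. Acumen cytometry (488 nm) gave the GFP/RFP total-intensity ratio.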
Sfp PPTase inh = blocks B. subtilis Sfp PPTase activity. AID 1490. Q9F4F7. Biochemical Sfp PPTase activity, qHTS. hit rate 3.5% among 310,000. Potency, µM, for the others: max response, negative = inhibition, usual class: inhibitors; active = well fitted inhibition curve with a large enough effect; inconclusive = small, poorly fitted or top-dose-only effect, or another doubt; inactive = no such curve, though single readings can be large or run the other way;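 also: the enzyme is Sfp with the accession as filed and its product quenches rhodamine fluorescence; potency is read from the fitted curve at half-maximal effect; 0% = enzyme reaction without inhibitor and -100% = no enzyme wells; top concentration of the series not given in the record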
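Compounds were incubated with enzyme (final 15 nM) for 15 min at room temperature before substrate addition started the reaction. Fluorescence at 525 nm excitation, 598 nm emission was recorded immediately and after 30 minutes.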
JMJD2E inh = blocks human JMJD2E demethylase activity; B2RXH2; JMJD2E catalytic domain, FDH-coupled NADH fluorescence (FDH is formaldehyde dehydrogenase); Potency, µM (titrated, usually from 57.1 µM), for inactives: at the highest dose activity change, negative = inhibition, actives largely listed as inhibitors; 230,000 tested, 1.6% active; active means well fitted inhibition curve with a large enough effect, not every such curve was filed as active; inconclusive means small, poorly fitted or top-dose-only effect, or another doubt; inactive means no such curve, though single readings can be large or run the other way;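 further: potency means the concentration at half of the fitted maximal effect; 0% = wells with enzyme and -100% = buffer wells without enzyme; nearly all actives have a fitted effect of over 50% in size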
miR-21 FLuc = miR-21 reporter, rising signal | HeLa miR-21 FLuc reporter, luciferase, 48 h | Potency, µM (highest dose often 38.3 µM), for inactives: at the top dose reporter change, positive = more light | 340,000 tested, under 10 active | AID 2288; active = well fitted rising curve with a large enough effect; inconclusive = small, poorly fitted or top-dose-only effect; inactive = no such curve, though single readings can be large or run the other way;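 further: % of control where 0% means no effect; miR-21 action dims this reporter so a rising signal means less miR-21 action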
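HeLa cells endogenously expressing miR-21, stably carrying CMV-driven firefly luciferase with a downstream miR-21 binding site, 2000 cells/well. Titrations up to approximately 40 uM, 48 hours; luciferase luminescence read.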
ALDH1A1 block = ALDH1A1 (human) enzyme inhibition | Purified ALDH1A1, NADH fluorescence, propionaldehyde substrate | Potency, µM (titrated, usually from 75.3 µM), without a hit: at the highest dose activity, negative = inhibition, most hits filed as inhibitors | 220,000 tested, 7.3% active | P00352; active means well fitted inhibition curve with a large enough effect, not every such curve was filed as active; inconclusive means small, poorly fitted or top-dose-only effect, or another doubt; inactive means no such curve, though single readings can be large or run the other way;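 further: potency means the concentration at half of the fitted maximal effect; plate controls were no enzyme wells and a reference inhibitor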
* = called active by the depositor; ? = inconclusive; / = not tested or not shown; ! = a repeat was not active; [ ] = remark or other dose. Shown are actives, neighbours in structure and some others; about 13% of the full set was active somewhere. Unless noted, the call rests on the fitted dose curve; in most records, active means well fitted curve in the direction sought with a large enough effect; inconclusive means small, poorly fitted or top-dose-only effect, or another doubt; inactive means no such curve, though single readings can be large; an effect the other way counts as inactive or inconclusive.

Order of results – G9a inh	Lamin A splicing	Sfp PPTase inh	JMJD2E inh	miR-21 FLuc	ALDH1A1 block
- Cc1ccc2c(c1)CCCN2C(=O)c1ccoc1C
 : -0.7%[12.7 µM]	8.6%	-9.5%	-6.8%	4.7%	?
- CSc1ccccc1Sc1cc(C(=O)O)c2ccccc2n1
 : 10µM*	-16.5%	-22.2%	4.4%	-10.7%	6.6%
- CCOC(=O)/C=C/COc1ccccc1[N+](=O)[O-]
 : -13.7%	?	9.1%	4.5%	-35.0%	-2.1%
- COc1ccc(C(c2sc3nc(C)nn3c2O)N2CC(C)OC(C)C2)cc1OC (stereo not drawn)
 : 18.8%[59 µM]	-3.6%	10.1%	-6.3%	-6.4%	-1.3%
- COc1cccc(C(c2sc3ncnn3c2O)N2CC(C)OC(C)C2)c1 (stereo not drawn)
 : -9.8%[59 µM]	-1.0%	-13.4%	0.2%	-6.8%	0.355µM*
- COc1cccc(C(c2sc3ncnn3c2O)N2CCc3ccccc3C2)c1 (stereo not drawn)
 : 7.08µM*	?	-23.9%	10.0%	-0.9%	?
- Oc1c(C(c2ccccc2)N2CCCCC2)sc2ncnn12 (stereo not drawn)
 : 15.9%[59 µM]	?	6.5%	-6.4%	2.8%	1.5%
- Cc1cccc(NC(=O)Cc2nc(-c3c[nH]c(C(=O)N4CCCC4)c3)cs2)c1
 : 56.2µM*	/	/	/	/	/
- COc1ccc(C2=C(C)C(N3CCC(C(=O)NCc4ccco4)CC3)=NS2(=O)=O)cc1
 : 2.9%[59 µM]	-5.7%[46 µM]	/	/	-4.8%	/
- Nc1cccc(NC(=O)c2cccs2)c1
 : 24.5%[59 µM]	9.5%	7.4%	2.1%	-18.8%	1.8%
- O=C(Nc1cccc(N2CCCC2)c1)c1cccs1
 : 3.16µM*	-10.9%	11.2%	-12.0%	-17.7%	-7.5%
- CCn1c(SCC(=O)Nc2cc(C)ccc2F)nnc1-c1ccccc1O
 : -2.9%[59 µM]	/	/	/	-12.8%	/
- CCC(C)NC(=O)CSc1nc2cc(S(=O)(=O)N3CCOCC3)ccc2n1CC (stereo not drawn)
 : -33.9%	/	/	/	/	/
- c1ccc2nc3c(nc2c1)c1ccccc1n3CCN1CCOCC1
 : -6.7%[12.7 µM]	-27.5%	1.6%	0.8%	-14.1%	-8.6%
- Cc1ccc(C(=O)CSc2nc3cc(S(=O)(=O)N4CCOCC4)ccc3o2)cc1
 : 31.6µM*	-9.6%	-15.0%	-10.6%	-2.8%	14.1µM*
- Cc1[nH]c2ccccc2c1C(=O)CSc1nc2cc(S(=O)(=O)N3CCCCC3)ccc2o1
 : -25.6%	?	10.4%	2.1%	-0.9%	-10.2%
- O=C(CSc1nc2cc(S(=O)(=O)N3CCOCC3)ccc2o1)NC1CCCc2ccccc21 (stereo not drawn)
 : ?	?	10µM*	-13.0%	1.5%	2.24µM*
- CCn1c2ccccc2c2nc3cc(S(=O)(=O)N4CCOCC4)ccc3nc21
 : 2.24µM*	-3.4%	6.31µM*	-14.0%	-2.8%	1µM*
- CCn1c(SCC(=O)c2cc(C)ccc2C)nc2cc(S(=O)(=O)N3CCOCC3)ccc21
 : 25.1µM*	?	15.0%	-1.2%	9.1%	-14.8%
- Cc1cccc(CSc2nc(-c3cccc(C)c3)nc3c2Cc2c(CO)cnc(C)c2O3)c1
 : -7.6%[59 µM]	/	/	/	-1.1%	/

Just ALDH1A1 block, for 2 of the compounds above:
Compound,ALDH1A1 block
Cc1ccc(C(=O)CSc2nc3cc(S(=O)(=O)N4CCOCC4)ccc3o2)cc1,14.1µM*
Cc1[nH]c2ccccc2c1C(=O)CSc1nc2cc(S(=O)(=O)N3CCCCC3)ccc2o1,-10.2%

Following part.
Order of results – G9a inh	Lamin A splicing	Sfp PPTase inh	JMJD2E inh	miR-21 FLuc	ALDH1A1 block
- O=C(COc1ccccc1Cl)Nc1nnc(S(=O)(=O)N2CCCCCC2)s1
 : 56.2µM*!	-3.2%[46 µM]	2.4%	/	-4.0%	/
- Cc1ccc(OCC(=O)Nc2nnc(S(=O)(=O)N3c4ccccc4CC3C)s2)cc1 (stereo not drawn)
 : 14.1µM*	0.3%[46 µM]	/	/	-29.1%	/
- Cc1ccc(OCC(=O)Nc2nnc(S(=O)(=O)N3CCCCCC3)s2)cc1
 : -36.5%[59 µM]	4.7%[46 µM]	-1.9%	/	-1.6%	/
- O=C(COc1ccccc1)Nc1nnc(S(=O)(=O)N2CCCCC2)s1
 : 0.1%	/	14.1%	/	-4.7%	/
- Cc1ccc(OCC(=O)Nc2nnc(S(=O)(=O)N3CCCCC3)s2)cc1
 : 79.4µM*	/	0.5%	/	-4.9%	/
- N#Cc1nc(COc2cccc(Cl)c2)oc1NCCc1ccccc1
 : ?	/	/	/	-41.0%	/
- CCN(C(=O)C1CCN(c2ncnc3c2nc2n3CCCCC2)CC1)c1cccc(Cl)c1
 : -3.4%[59 µM]	-17.5%[46 µM]	/	/	13.8%	/
- CC(=O)c1ccc(NC(=O)c2cn(C)c(=O)c3ccccc23)cc1
 : -2.3%[59 µM]	/	/	/	4.1%	/

Looked up above.
miR-21 FLuc with O=C(COc1ccccc1Cl)Nc1nnc(S(=O)(=O)N2CCCCCC2)s1 stands at -4.0%
G9a inh with Cc1ccc(OCC(=O)Nc2nnc(S(=O)(=O)N3c4ccccc4CC3C)s2)cc1 (stereo not drawn) stands at 14.1µM*
miR-21 FLuc with Cc1ccc(OCC(=O)Nc2nnc(S(=O)(=O)N3CCCCCC3)s2)cc1 stands at -1.6%
miR-21 FLuc with O=C(COc1ccccc1)Nc1nnc(S(=O)(=O)N2CCCCC2)s1 stands at -4.7%

From PubChem
